This note sets out measurements from US12252481B2, “Anti-viral compounds” (Aligos Therapeutics, Inc., priority 2021, dated 2025).

Amino acid sequences for entries named in this document (tags omitted). Residues count along the entry.
UniProt P03303, 1538-1719: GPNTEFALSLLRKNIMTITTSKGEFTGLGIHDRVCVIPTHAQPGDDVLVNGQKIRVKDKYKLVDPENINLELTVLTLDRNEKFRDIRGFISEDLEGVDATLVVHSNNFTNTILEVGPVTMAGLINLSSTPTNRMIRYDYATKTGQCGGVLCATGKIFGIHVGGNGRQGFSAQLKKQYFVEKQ

The target of one assay is T1, SARS-Cov-2 3CLpro (Severe acute respiratory syndrome coronavirus 2, UniProt P0DTD1).
T1 construct: 3CLpro and HRV3C was added using a Multidrop Combi
Description: biochemical.

The target in the next assay is T2, HRV3C (Human rhinovirus 14, UniProt P03303).
T2 construct: 3CLpro and HRV3C was added using a Multidrop Combi
Nature of the assay: biochemical. Set-up: species or system HRV.

For the compound `N#C[C@H](C[C@@H]1CCNC1=O)NC(=O)[C@@H]1[C@@H]2[C@H](CN1C(=O)[C@@H]1C[C@]13CCc1ccccc13)[C@@H]1C=C[C@H]2C1` (single isomer, unassigned) [Example 38, (1S,3aR,4S,7R,7aS)-N-((S)-1-cyano-2-((S)-2-oxopyrrolidin-3-yl)ethyl)-2-((1R*,2R*)-2′,3′-dihydrospiro[cyclopropane-1,1′-indene]-2-carbonyl)-2,3,3a,4,7,7a-hexahydro-1H-4,7-methanoisoindole-1-carboxamide], the IC50 – broadly, the concentration needed to halve the response being measured – was 20 to 200 nM on SARS-Cov-2 3CLpro and greater than 10000 nM on HRV3C.
